1 molecule from US10941132B2, “Pyrazole derivatives” (HUA MEDICINE (SHANGHAI) Ltd., priority 2016, dated 2021) can be followed below.

Protein sequences, listed by entry. Tags and fused reporters are not part of them. Residues count along the entry.
UniProt P31424, 21-1203 limits assumed: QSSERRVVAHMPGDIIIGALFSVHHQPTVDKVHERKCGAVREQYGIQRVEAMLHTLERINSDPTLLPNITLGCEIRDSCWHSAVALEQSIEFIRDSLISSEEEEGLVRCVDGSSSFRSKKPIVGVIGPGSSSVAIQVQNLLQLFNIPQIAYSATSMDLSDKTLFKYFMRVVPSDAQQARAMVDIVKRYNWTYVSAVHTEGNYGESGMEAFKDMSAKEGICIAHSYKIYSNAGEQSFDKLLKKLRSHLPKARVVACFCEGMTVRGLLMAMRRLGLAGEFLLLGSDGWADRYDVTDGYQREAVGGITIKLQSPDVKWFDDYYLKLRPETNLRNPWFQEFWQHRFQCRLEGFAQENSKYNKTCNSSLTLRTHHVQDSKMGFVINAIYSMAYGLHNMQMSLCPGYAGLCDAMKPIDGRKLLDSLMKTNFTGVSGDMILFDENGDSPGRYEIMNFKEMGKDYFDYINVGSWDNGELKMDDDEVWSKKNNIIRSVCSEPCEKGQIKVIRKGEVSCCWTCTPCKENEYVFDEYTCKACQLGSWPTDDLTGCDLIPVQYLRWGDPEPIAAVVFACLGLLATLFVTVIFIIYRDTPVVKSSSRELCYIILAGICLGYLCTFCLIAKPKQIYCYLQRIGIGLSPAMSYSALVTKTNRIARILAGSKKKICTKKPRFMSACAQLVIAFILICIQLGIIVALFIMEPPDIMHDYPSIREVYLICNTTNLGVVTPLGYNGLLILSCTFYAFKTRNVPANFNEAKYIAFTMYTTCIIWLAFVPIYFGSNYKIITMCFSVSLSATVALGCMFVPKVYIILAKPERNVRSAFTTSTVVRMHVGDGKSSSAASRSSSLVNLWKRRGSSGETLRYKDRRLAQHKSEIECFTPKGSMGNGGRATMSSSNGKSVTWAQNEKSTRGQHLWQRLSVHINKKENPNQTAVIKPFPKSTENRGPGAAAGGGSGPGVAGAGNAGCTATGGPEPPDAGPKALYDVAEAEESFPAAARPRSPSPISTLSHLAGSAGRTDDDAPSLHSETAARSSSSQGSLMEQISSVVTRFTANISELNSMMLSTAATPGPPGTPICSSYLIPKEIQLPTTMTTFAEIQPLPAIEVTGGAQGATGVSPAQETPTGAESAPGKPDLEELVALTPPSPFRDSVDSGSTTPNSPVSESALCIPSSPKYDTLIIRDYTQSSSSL

This assay has as its target recombinant rat mGluR5 (Rattus norvegicus, UniProt P31424). The assay can be described thus: Functional calcium flux assay (FLIPR), antagonist evaluation against glutamate-evoked [Ca2+]i increase. The note with it: read-out: IC50 value (FLIPR assay); Table 1; HEK293 cells stably expressing recombinant rat mGluR5; 15 min incubation of test compound, then submaximal glutamate. Format: cell-based. How it is done:
Functional Calcium Clux Assay Methodology
For functional assays, HEK293 cells stably expressing recombinant rat mGluR5 were seeded in 384-well plates and dye loaded using Fluo-8. Cells were then washed to remove the un-incorporated dye. Antagonist evaluation was performed following a 15 min incubation of the test compound followed by the addition of submaximal concentration of glutamate. Intracellular calcium ([Ca^2+]i) measurements were performed using a fluorometric imaging plate reader (FLIPR, Molecular Devices). The glutamate-evoked increase in [Ca^2′]i in the presence of the test compounds was compared to the response to glutamate alone (the positive control). Antagonist inhibition curves were fitted with a 4-parameter logistic equation giving IC50 values, and Hill coefficients using an iterative nonlinear curve fitting algorithm.
The tables below provide IC50 data in this assay. In the activity column, A=IC50>1,000 and ≤5,000 nM; B=IC50>500 and ≤1,000 nM and C=IC50≤500 nM.

pIC50: −log10 of the molar value.

Regarding `COCCOc1c(C#Cc2ncccn2)cnn1-c1ccc(F)cc1`, the negative logarithm of the IC50 (pIC50) was 5.30 to 6.00.
